Reference: the NIST ThermoML archive (doi:10.1016/j.jct.2009.07.001)
Where “and” joins values, the source holds several entries; their conditions need not be identical. Equal values may be shown once.

Assay: excess molar enthalpy (molar enthalpy of mixing); xn = mol fraction of the nth substance listed
Details: 298.15 K, 101 kPa, Liquid, Calvet calorimetry

CCCCOCCCC [dibutyl ether] + CCCCCCCCO
Details | excess molar enthalpy [kcal/mol]
x2 = 0.0652 | 0.0925
x2 = 0.1011 | 0.125
x2 = 0.1512 | 0.157
x2 = 0.2017 | 0.178
x2 = 0.2446 | 0.19
x2 = 0.2981 | 0.198
x2 = 0.3382 | 0.202
x2 = 0.3986 | 0.203
x2 = 0.4432 | 0.2
x2 = 0.4966 | 0.193
x2 = 0.5393 | 0.186
x2 = 0.5907 | 0.17
x2 = 0.5961 | 0.168
x2 = 0.6363 | 0.158
x2 = 0.7087 | 0.132
x2 = 0.7311 | 0.125
x2 = 0.787 | 0.102
x2 = 0.83 | 0.0822
x2 = 0.879 | 0.0586
x2 = 0.9304 | 0.0332
x2 = 0.937 | 0.0299

CCCCOCCCC [dibutyl ether] + CCCCCCO
Details | excess molar enthalpy [kcal/mol]
x2 = 0.0558 | 0.0827
x2 = 0.1107 | 0.134
x2 = 0.1491 | 0.157
x2 = 0.2032 | 0.18
x2 = 0.2488 | 0.193
x2 = 0.2982 | 0.201
x2 = 0.3477 | 0.204
x2 = 0.3965 | 0.205
x2 = 0.4418 | 0.203
x2 = 0.5016 | 0.195
x2 = 0.5449 | 0.186
x2 = 0.5978 | 0.174
x2 = 0.6464 | 0.157
x2 = 0.6913 | 0.141
x2 = 0.7354 | 0.125
x2 = 0.7958 | 0.0992
x2 = 0.8479 | 0.0753
x2 = 0.888 | 0.0557
x2 = 0.9318 | 0.0325
x2 = 0.9326 | 0.0327

CCCCOCCCC [dibutyl ether] + CCCCCO
Details | excess molar enthalpy [kcal/mol]
x2 = 0.0545 | 0.0841
x2 = 0.1134 | 0.139
x2 = 0.1626 | 0.169
x2 = 0.2027 | 0.186
x2 = 0.2518 | 0.199
x2 = 0.2984 | 0.206
x2 = 0.3486 | 0.212
x2 = 0.3983 | 0.211
x2 = 0.4484 | 0.209
x2 = 0.4942 | 0.201
x2 = 0.5466 | 0.193
x2 = 0.6023 | 0.178
x2 = 0.6444 | 0.167
x2 = 0.6876 | 0.145
x2 = 0.7406 | 0.127
x2 = 0.795 | 0.103
x2 = 0.8434 | 0.0803
x2 = 0.891 | 0.0562
x2 = 0.9389 | 0.0306

CCCCOCCCC [dibutyl ether] + CCCCO
Details | excess molar enthalpy
x2 = 0.0711 | 0.105 kcal/mol
x2 = 0.0787 | 0.113 kcal/mol
x2 = 0.1094 | 0.14 kcal/mol
x2 = 0.1365 | 0.158 kcal/mol
x2 = 0.1592 | 0.171 kcal/mol
x2 = 0.1825 | 0.183 kcal/mol
x2 = 0.2335 | 0.201 kcal/mol
x2 = 0.2571 | 0.206 kcal/mol
x2 = 0.2625 | 0.207 kcal/mol
x2 = 0.2632 | 0.206 kcal/mol
x2 = 0.3126 | 0.215 kcal/mol
x2 = 0.3587 | 0.217 kcal/mol
x2 = 0.3597 | 0.218 kcal/mol
x2 = 0.4155 | 0.216 kcal/mol
x2 = 0.4605 | 0.211 kcal/mol
x2 = 0.4998 | 0.206 kcal/mol
x2 = 0.5535 | 0.196 kcal/mol
x2 = 0.6027 | 0.183 kcal/mol
x2 = 0.647 | 0.17 kcal/mol
x2 = 0.6946 | 0.153 kcal/mol
x2 = 0.7472 | 0.132 kcal/mol
x2 = 0.8008 | 0.107 kcal/mol
x2 = 0.8451 | 0.0837 kcal/mol
x2 = 0.8458 | 0.0837 kcal/mol
x2 = 0.8957 | 0.0583 kcal/mol
x2 = 0.9466 | 0.0304 kcal/mol and 0.0301 kcal/mol

CCCCOCCCC [dibutyl ether] + CCCO
Details | excess molar enthalpy [kcal/mol]
x2 = 0.0724 | 0.108
x2 = 0.0791 | 0.115
x2 = 0.1166 | 0.148
x2 = 0.1662 | 0.177
x2 = 0.2052 | 0.195
x2 = 0.2617 | 0.21
x2 = 0.3022 | 0.218
x2 = 0.3489 | 0.222
x2 = 0.4017 | 0.222
x2 = 0.4463 | 0.219
x2 = 0.5005 | 0.211
x2 = 0.5249 | 0.207
x2 = 0.5979 | 0.188
x2 = 0.6502 | 0.172
x2 = 0.692 | 0.159
x2 = 0.6962 | 0.154
x2 = 0.7435 | 0.135
x2 = 0.7913 | 0.109
x2 = 0.8422 | 0.086
x2 = 0.8918 | 0.0614
x2 = 0.939 | 0.0344

CCCCOCCCC [dibutyl ether] + CO
Details | excess molar enthalpy [kcal/mol]
x2 = 0.0607 | 0.0796
x2 = 0.1267 | 0.129
x2 = 0.1719 | 0.152
x2 = 0.1987 | 0.163
x2 = 0.214 | 0.168
x2 = 0.2805 | 0.183
x2 = 0.313 | 0.189
x2 = 0.3816 | 0.191
x2 = 0.3979 | 0.193
x2 = 0.462 | 0.191
x2 = 0.4968 | 0.189
x2 = 0.5453 | 0.183
x2 = 0.6012 | 0.173
x2 = 0.6454 | 0.162
x2 = 0.6968 | 0.15
x2 = 0.7455 | 0.134
x2 = 0.7992 | 0.115
x2 = 0.8467 | 0.0946
x2 = 0.8963 | 0.0722
x2 = 0.9439 | 0.0423
